According to patent US7671056B2, “Piperazine-piperidine antagonists and agonists of the 5-HT1A receptor” (Wyeth LLC, priority 2005, dated 2010):

System: Male Long-Evans hooded rats
Assay: Synergy with acetylcholinesterase inhibitor Aricept in Novel Object Recognition Model
Assay type: in vivo, rat
Settings: Aricept 0.5 mg/kg i.p. alone (sub-threshold), P<0.05

## COc1cc2c(cc1OC)C(=O)C(CC1CCN(Cc3ccccc3)CC1)C2 (stereo not shown) [Aricept®, donepezil]
  contact times in familiar and novel environments, administered separately: not statistically different
